Data from paper PMC7179958, “Prediction of Clinical Transporter‐Mediated Drug–Drug Interactions via Comeasurement of Pitavastatin and Eltrombopag in Human Hepatocyte Models” (CPT: Pharmacometrics & Systems Pharmacology, 2020).

System: human hepatocytes
Test: Uptake of pitavastatin and eltrombopag in cryopreserved human hepatocytes (oil spin method), comeasurement, micro‐rate constant mechanistic model
Type: in vitro ADME
Protocol: Human hepatocytes were obtained from BioIVT (Brussels, Belgium; lot number: LYB; 10 donor LiverPool (8 Caucasians, 1 African American, and 1 Hispanic) and thawed according to supplier guidelines in Leibovitz L15 medium. Hepatocytes were kept on ice prior to use and were used within 3 hours of defrosting.
Hepatocytes (viability 84–87%) were preincubated in Leibovitz L15 medium at 1.5 × 10^6 cells for 15 minutes at 37 °C with either 0.1% DMSO or 45 nmol/mL eltrombopag. Incubations were started by the addition of pitavastatin (0.3–100 nmol/mL, 1 × 10^6 cells, 0.35% DMSO, 30 nmol/mL eltrombopag final), and 100 µL samples taken at 0.25–30 minutes. Cells were separated using an oil spin method similar to the literature. ^11 , ^17 After separation, the tubes were frozen on dry ice and the bottom layer was cut off. Pitavastatin and eltrombopag were extracted in a stop solution prior to ultra‐performance liquid chromatography–high‐resolution mass spectrometry analysis (see the Supplemental Material for full experimental and sample extraction methods).
The bottom layer concentrations of pitavastatin and eltrombopag were converted to a cellular concentration using a cellular volume (V cell) of 3 µL/1 × 10^6 human hepatocytes: ^18 (1) cellnmol/mL=Bottom layer×15.3μL/Vcell/100 where V cell /1 × 10^5 cells was 0.3 µL, and the volume of the bottom layer of cesium chloride was 15 µL. A dilution factor of 100 was used to scale from pmol/mL/1 × 10^5 cells to nmol/mL/1 × 10^6 cells.
The final chosen mechanistic model (model 1 with the comeasurement of pitavastatin and eltrombopag; Table 1 ) was based on the outcome of the structural identifiability analysis and goodness‐of‐fit statistics (Bayesian information criterion, and the weighted Bayesian information criterion, ^21 and the sum of the relative mean square root error (percentage RMSRE); see Supplemental Material ). Model 1 was described using a set of ODEs representing the following: the amount of pitavastatin (X = substrate (S) or pitavastatin (P)) and eltrombopag (X = inhibitor (I) or eltrombopag (E)) in the medium (X 1), the amount bound to transporter (X 2), and the intracellular amount (X 3). Passive rate constants for movement into and out of the cell (k f.X and k bX, respectively) as well as uptake transporter‐mediated rate constants for association to the transporter (k aX) and dissociation (k dX) and translocation (k tX) from the transporter into the medium and cell, respectively. Metabolism of pitavastatin in the cell was through an elimination rate constant (k e). The sets of ODEs for all the models (models 1–4; Table 1 ) tested for structural identifiability and used for parameter estimation are included in the Supplemental Material .
Parameter estimation was conducted within Monolix 2018 R2 (Lixoft, Antony, France) for each concentration and experiment as an individual data set, where to ensure positivity, a log‐normal distribution was assumed for each parameter, with a proportional residual error model for the observations. Because of the large number of parameters to be estimated in the combined pitavastatin and eltrombopag mechanistic model, the initial estimates for pitavastatin and eltrombopag each were obtained for the micro‐rate constant models (no macro‐rate constant estimates could be obtained for eltrombopag alone for transporter‐mediated uptake).
Hepatocyte Incubations. 0.4 mL of hepatocytes was diluted 1:1 with Leibovitz either containing DMSO blank (0.1 % for pitavastatin or 0.25 % for eltrombopag alone) or eltrombopag at 90 nmol/mL and pre-incubated at 1.5x10^6 cells/mL for 15 min at 37 °C in 7 mL glass scintillation vials (PerkinElmer, Vasby, Sweden) in a shaking water bath (Grant Instruments, Cambridge, UK). Pitavastatin was dissolved and serially diluted in DMSO to give 0.12, 0.4, 1.2, 4, 12 and 40 µmol/mL, and then diluted 400-fold into 37 °C Leibovitz L15 medium. […]

O=C(O)C[C@H](O)C[C@H](O)/C=C/c1c(C2CC2)nc2ccccc2c1-c1ccc(F)cc1 [pitavastatin, pitavastatin calcium]
DV = amount of measured pitavastatin and/or eltrombopag (ID 31, pitavastatin AMT 30 nmol at TIME 15, TIME 25 min): 59.98 nmol
DV = amount of measured pitavastatin and/or eltrombopag (ID 31, pitavastatin AMT 30 nmol at TIME 15, TIME 45 min): 87.76 nmol
DV (pitavastatin uptake into hepatocytes) (ID 32, AMT 30, TIME 15.25, DVID 2): 62.23
DV (pitavastatin uptake into hepatocytes) (ID 32, AMT 30, TIME 15.5, DVID 2): 75.26
DV (pitavastatin uptake into hepatocytes) (ID 32, AMT 30, TIME 16, DVID 2): 114.22
DV (pitavastatin uptake into hepatocytes) (ID 32, AMT 30, TIME 17, DVID 2): 132.18
DV (pitavastatin uptake into hepatocytes) (ID 32, AMT 30, TIME 20, DVID 2): 159.89
DV (pitavastatin uptake into hepatocytes) (ID 32, AMT 30, TIME 25, DVID 2): 163.93
DV (pitavastatin uptake into hepatocytes) (ID 32, AMT 30, TIME 45, DVID 2): 176.26
DV = amount of measured pitavastatin and/or eltrombopag (ID 32, pitavastatin AMT 30 nmol at TIME 15, TIME 15.25 min): 62.23 nmol
DV = amount of measured pitavastatin and/or eltrombopag (ID 32, pitavastatin AMT 30 nmol at TIME 15, TIME 15.5 min): 75.26 nmol
DV = amount of measured pitavastatin and/or eltrombopag (ID 32, pitavastatin AMT 30 nmol at TIME 15, TIME 16 min): 114.22 nmol
DV = amount of measured pitavastatin and/or eltrombopag (ID 32, pitavastatin AMT 30 nmol at TIME 15, TIME 17 min): 132.18 nmol
DV = amount of measured pitavastatin and/or eltrombopag (ID 32, pitavastatin AMT 30 nmol at TIME 15, TIME 20 min): 159.89 nmol
DV = amount of measured pitavastatin and/or eltrombopag (ID 32, pitavastatin AMT 30 nmol at TIME 15, TIME 25 min): 163.93 nmol
DV = amount of measured pitavastatin and/or eltrombopag (ID 32, pitavastatin AMT 30 nmol at TIME 15, TIME 45 min): 176.26 nmol
DV (pitavastatin uptake into hepatocytes) (ID 33, AMT 30, TIME 15.25, DVID 2): 26.77
DV (pitavastatin uptake into hepatocytes) (ID 33, AMT 30, TIME 15.5, DVID 2): 38.61
DV (pitavastatin uptake into hepatocytes) (ID 33, AMT 30, TIME 16, DVID 2): 45.83
DV (pitavastatin uptake into hepatocytes) (ID 33, AMT 30, TIME 17, DVID 2): 61.09
DV (pitavastatin uptake into hepatocytes) (ID 33, AMT 30, TIME 20, DVID 2): 81.99
DV (pitavastatin uptake into hepatocytes) (ID 33, AMT 30, TIME 25, DVID 2): 73.56
DV (pitavastatin uptake into hepatocytes) (ID 33, AMT 30, TIME 45, DVID 2): 78.92
DV = amount of measured pitavastatin and/or eltrombopag (ID 33, pitavastatin AMT 30 nmol at TIME 15, TIME 15.25 min): 26.77 nmol
DV = amount of measured pitavastatin and/or eltrombopag (ID 33, pitavastatin AMT 30 nmol at TIME 15, TIME 15.5 min): 38.61 nmol
DV = amount of measured pitavastatin and/or eltrombopag (ID 33, pitavastatin AMT 30 nmol at TIME 15, TIME 16 min): 45.83 nmol
DV = amount of measured pitavastatin and/or eltrombopag (ID 33, pitavastatin AMT 30 nmol at TIME 15, TIME 17 min): 61.09 nmol
DV = amount of measured pitavastatin and/or eltrombopag (ID 33, pitavastatin AMT 30 nmol at TIME 15, TIME 20 min): 81.99 nmol
DV = amount of measured pitavastatin and/or eltrombopag (ID 33, pitavastatin AMT 30 nmol at TIME 15, TIME 25 min): 73.56 nmol
DV = amount of measured pitavastatin and/or eltrombopag (ID 33, pitavastatin AMT 30 nmol at TIME 15, TIME 45 min): 78.92 nmol
DV (pitavastatin uptake into hepatocytes) (ID 34, AMT 100, TIME 15.25, DVID 2): 83.21
DV (pitavastatin uptake into hepatocytes) (ID 34, AMT 100, TIME 15.5, DVID 2): 84.23
DV (pitavastatin uptake into hepatocytes) (ID 34, AMT 100, TIME 16, DVID 2): 149.55
DV (pitavastatin uptake into hepatocytes) (ID 34, AMT 100, TIME 17, DVID 2): 162.02
DV (pitavastatin uptake into hepatocytes) (ID 34, AMT 100, TIME 20, DVID 2): 195.87
DV (pitavastatin uptake into hepatocytes) (ID 34, AMT 100, TIME 25, DVID 2): 258.45
DV (pitavastatin uptake into hepatocytes) (ID 34, AMT 100, TIME 45, DVID 2): 241.53
DV = amount of measured pitavastatin and/or eltrombopag (ID 34, pitavastatin AMT 100 nmol at TIME 15, TIME 15.25 min): 83.21 nmol
DV = amount of measured pitavastatin and/or eltrombopag (ID 34, pitavastatin AMT 100 nmol at TIME 15, TIME 15.5 min): 84.23 nmol
DV = amount of measured pitavastatin and/or eltrombopag (ID 34, pitavastatin AMT 100 nmol at TIME 15, TIME 16 min): 149.55 nmol
DV = amount of measured pitavastatin and/or eltrombopag (ID 34, pitavastatin AMT 100 nmol at TIME 15, TIME 17 min): 162.02 nmol
DV = amount of measured pitavastatin and/or eltrombopag (ID 34, pitavastatin AMT 100 nmol at TIME 15, TIME 20 min): 195.87 nmol
DV = amount of measured pitavastatin and/or eltrombopag (ID 34, pitavastatin AMT 100 nmol at TIME 15, TIME 25 min): 258.45 nmol
DV = amount of measured pitavastatin and/or eltrombopag (ID 34, pitavastatin AMT 100 nmol at TIME 15, TIME 45 min): 241.53 nmol
DV (pitavastatin uptake into hepatocytes) (ID 36, AMT 100, TIME 15.25, DVID 2): 56.55
DV (pitavastatin uptake into hepatocytes) (ID 36, AMT 100, TIME 15.5, DVID 2): 71.62
DV (pitavastatin uptake into hepatocytes) (ID 36, AMT 100, TIME 16, DVID 2): 101.21
DV (pitavastatin uptake into hepatocytes) (ID 36, AMT 100, TIME 17, DVID 2): 112.18
DV (pitavastatin uptake into hepatocytes) (ID 36, AMT 100, TIME 20, DVID 2): 166.1
DV (pitavastatin uptake into hepatocytes) (ID 36, AMT 100, TIME 25, DVID 2): 175.81
DV (pitavastatin uptake into hepatocytes) (ID 36, AMT 100, TIME 45, DVID 2): 174.89
DV = amount of measured pitavastatin and/or eltrombopag (ID 36, pitavastatin AMT 100 nmol at TIME 15, TIME 15.25 min): 56.55 nmol
DV = amount of measured pitavastatin and/or eltrombopag (ID 36, pitavastatin AMT 100 nmol at TIME 15, TIME 15.5 min): 71.62 nmol
DV = amount of measured pitavastatin and/or eltrombopag (ID 36, pitavastatin AMT 100 nmol at TIME 15, TIME 16 min): 101.21 nmol
DV = amount of measured pitavastatin and/or eltrombopag (ID 36, pitavastatin AMT 100 nmol at TIME 15, TIME 17 min): 112.18 nmol
DV = amount of measured pitavastatin and/or eltrombopag (ID 36, pitavastatin AMT 100 nmol at TIME 15, TIME 20 min): 166.1 nmol
DV = amount of measured pitavastatin and/or eltrombopag (ID 36, pitavastatin AMT 100 nmol at TIME 15, TIME 25 min): 175.81 nmol
DV = amount of measured pitavastatin and/or eltrombopag (ID 36, pitavastatin AMT 100 nmol at TIME 15, TIME 45 min): 174.89 nmol
DV = amount of measured pitavastatin (pitavastatin alone, AMT 0.3 nmol, TIME 15.25 min (pitavastatin dosed at 15 min)): 1 nmol and 0.64 nmol
DV = amount of measured pitavastatin (pitavastatin alone, AMT 0.3 nmol, TIME 15.33 min (pitavastatin dosed at 15 min)): 0.44 nmol
DV = amount of measured pitavastatin (pitavastatin alone, AMT 0.3 nmol, TIME 17 min (pitavastatin dosed at 15 min)): 3.74 nmol and 2.84 nmol and 2.05 nmol
DV = amount of measured pitavastatin (pitavastatin alone, AMT 0.3 nmol, TIME 20 min (pitavastatin dosed at 15 min)): 6.25 nmol and 3.66 nmol and 3.37 nmol
DV = amount of measured pitavastatin (pitavastatin alone, AMT 0.3 nmol, TIME 25 min (pitavastatin dosed at 15 min)): 6.32 nmol and 3.52 nmol and 3.44 nmol
DV = amount of measured pitavastatin (pitavastatin alone, AMT 1 nmol, TIME 15.25 min (pitavastatin dosed at 15 min)): 1.64 nmol and 3.21 nmol and 2.1 nmol
DV = amount of measured pitavastatin (pitavastatin alone, AMT 1 nmol, TIME 45 min (pitavastatin dosed at 15 min)): 9.06 nmol and 14.63 nmol and 8.88 nmol
DV = amount of measured pitavastatin (pitavastatin alone, AMT 3 nmol, TIME 20 min (pitavastatin dosed at 15 min)): 20.91 nmol and 34.93 nmol and 23.79 nmol
DV = amount of measured pitavastatin (pitavastatin alone, AMT 3 nmol, TIME 25 min (pitavastatin dosed at 15 min)): 23.83 nmol and 41.51 nmol and 27.45 nmol
DV = amount of measured pitavastatin (pitavastatin alone, AMT 10 nmol, TIME 45 min (pitavastatin dosed at 15 min)): 51.06 nmol and 92.94 nmol and 58.31 nmol
DV = amount of measured pitavastatin (pitavastatin alone, AMT 30 nmol, TIME 15.5 min (pitavastatin dosed at 15 min)): 39.76 nmol and 78.62 nmol and 44.72 nmol
DV = amount of measured pitavastatin (pitavastatin alone, AMT 100 nmol, TIME 17 min (pitavastatin dosed at 15 min)): 165.82 nmol
DV = amount of measured pitavastatin (with eltrombopag, pitavastatin AMT 1 nmol, TIME 17 min (pitavastatin dosed at 15 min)): 2.36 nmol and 4.35 nmol and 3.12 nmol
DV = amount of measured pitavastatin (with eltrombopag, pitavastatin AMT 10 nmol, TIME 16 min (pitavastatin dosed at 15 min)): 13.7 nmol
DV = amount of measured pitavastatin (with eltrombopag, pitavastatin AMT 10 nmol, TIME 17 min (pitavastatin dosed at 15 min)): 20.56 nmol
DV = amount of measured pitavastatin (with eltrombopag, pitavastatin AMT 10 nmol, TIME 20 min (pitavastatin dosed at 15 min)): 22.94 nmol
DV = amount of measured pitavastatin (with eltrombopag, pitavastatin AMT 10 nmol, TIME 25 min (pitavastatin dosed at 15 min)): 25.07 nmol
DV = amount of measured pitavastatin (with eltrombopag, pitavastatin AMT 10 nmol, TIME 45 min (pitavastatin dosed at 15 min)): 27.58 nmol

“And” between values parts separate entries of the source, which are not always exact repeats. Identical values can stand only once.
